Test results published in published antibiotic growth screens (doi:10.1038/s41589-023-01349-8).
This is one part of the list.

tested on: A. baumannii ATCC 17978; experiment: relative growth (fraction of control); higher = less inhibition; conditions: 50 µM

Compared with `CC(C)(CO)C(O)C(=O)NCCCO` (centres undefined), `C[C@@H](O)CNC(=O)C(=O)NC(C)(C)C` is higher in relative growth: 0.89 for the first, 0.912 for the second.

Compared with `[N-]=[N+]=Nc1ccccc1[C@H]1OC(c2ccc(OCCCO)cc2)=N[C@@]1(CCS(=O)(=O)c1ccccc1)C(=O)NC[C@@H](O)CO`, `COc1ccc(CCNC(=O)[C@@]2(Cc3ccccc3I)c3ccccc3C(=O)N(Cc3ccccc3)[C@H]2c2ccc(COC(=O)NCCCCCC(=O)NO)cc2)cc1` is higher in relative growth: 0.837 for the first, 1.06 for the second.

Compared with `NCCCNCCCCNCCCN`, `CCCCCCCCCC[C@@H](C(=O)O)[C@]1(C(=O)O)CCC(=O)O1` is higher in relative growth: 0.885 for the first, 1.2 for the second.

First: COc1ccc(-c2oc3cc(OC)c(OC)c(OC)c3c(=O)c2OC)cc1
Second: COc1ccc(-c2coc3cc(OC)ccc3c2=O)cc1
The relative growth of the first is lower: 1.01 for the first, 1.07 for the second.

Going from `O=C(C[C@@H]1CC[C@H](NS(=O)(=O)c2ccccc2)[C@H](CO)O1)NCc1ccncn1` to `COc1cccc(S(=O)(=O)N[C@H]2CC[C@H](CC(=O)NC3CCC3)O[C@@H]2CO)c1`, the relative growth falls from 1.22 to 1.04.

First: CN(C)CC(=O)N[C@@H]1CC[C@@H](CCNC(=O)C2CCC2)O[C@H]1CO
Second: CCNC(=O)C[C@H]1C=C[C@H](NC(=O)C2CCOCC2)[C@H](CO)O1
The relative growth of the first is lower: 1.02 for the first, 1.14 for the second.

First: COc1ccc(S(=O)(=O)N2C[C@H](O)COC[C@@H]3O[C@@H](CC(=O)N[C@@H]4CCN(Cc5ccccc5)C4)CC[C@H]32)cc1
Second: COc1ccc(S(=O)(=O)N2C[C@H](O)COC[C@H]3O[C@H](CC(=O)N[C@@H]4CCN(Cc5ccccc5)C4)CC[C@@H]32)cc1
The relative growth of the first is higher: 0.93 for the first, 0.925 for the second.

Going from `CC1=NN(c2ccccc2)C(=O)C1` to `OCc1cn(-c2ccccc2)nn1`, the relative growth rises from 0.98 to 1.02.

Compared with `O=C(/C=N/O)NCc1ccccn1`, `O=C(O)CCNC(=O)c1ccccc1` is higher in relative growth: 0.951 for the first, 1.03 for the second.

First: Cn1cnc2c1c(=O)[nH]c(=O)n2C
Second: C#CCn1c(=O)c2c(OC)ccnc2n(C)c1=O
The relative growth of the first is lower: 0.908 for the first, 1.14 for the second.

First: CC(C)CCCC(C)NC(C)C.Cl (centres undefined)
Second: CC(C)NC(=N)NC(=N)Nc1ccc(Cl)cc1.Cl
The relative growth of the first is higher: 1.05 for the first, 1.04 for the second.

First: CO/N=C(/C(=O)NC1C(=O)N2C(C(=O)OC(C)OC(C)=O)=C(COC(N)=O)CSC12)c1ccco1 (centres undefined)
Second: CC(=O)N[C@@H]1C[C@H](O)[C@@H](O)CCC(=O)N[C@H](c2ccccc2)COC1=O
The relative growth of the first is lower: 0.997 for the first, 1 for the second.

Going from `O=C(C[C@H]1CC[C@@H]2[C@H](COC[C@@H](O)CN2C(=O)Nc2ccc(Cl)cc2)O1)NC1Cc2ccccc2C1` to `COc1ccccc1CNC(=O)C[C@H]1CC[C@@H]2[C@H](COC[C@H](O)CN2C(=O)Nc2ccc(F)cc2)O1`, the relative growth rises from 0.983 to 1.04.

First: Cc1ccc(S(=O)(=O)[N-]Cl)cc1.[Na+]
Second: Cc1ccc(S(=O)(=O)N[C@H](C(=O)NCCn2cc(-c3cccc(/C=C/C(=O)NO)c3)nn2)C(C)C)cc1
The relative growth of the first is lower: 0.859 for the first, 1.1 for the second.

Compared with `COCC#Cc1ccc2c(c1)O[C@H](CN(C)S(C)(=O)=O)[C@H](C)CN([C@H](C)CO)S2(=O)=O`, `COCC#Cc1ccc2c(c1)O[C@H](CN(C)Cc1ccccc1F)[C@H](C)CN([C@@H](C)CO)S2(=O)=O` is lower in relative growth: 1.01 for the first, 0.638 for the second.

Compared with `CO[C@H]1/C=C\C=C(/C)C(=O)NC2=CC(=O)C(NCCN(C)C)=C(C[C@@H](C)C[C@H](OC)[C@H](O)[C@@H](C)/C=C(\C)[C@@H]1OC(N)=O)C2=O`, `COCC(=O)Nc1ccc2c(c1)C(=O)N(C)C[C@H](OC)[C@H](C)CN(Cc1cccc(F)c1)[C@@H](C)CO2` is higher in relative growth: 1.13 for the first, 1.18 for the second.

Compared with `NNC(=O)c1nc(-c2ccccc2)no1`, `COc1cc(O)cc(O)c1C(=O)c1ccccc1` is lower in relative growth: 0.844 for the first, 0.752 for the second.

First: C[C@H](CO)N1C[C@H](C)[C@H](CN(C)C(=O)c2cnccn2)Oc2cc(C#CCC3CCCC3)ccc2S1(=O)=O
Second: C[C@@H]1CN([C@H](C)CO)S(=O)(=O)c2ccc(C#CC3CC3)cc2O[C@@H]1CN(C)C(=O)C1CCCCC1
The relative growth of the first is lower: 0.744 for the first, 0.857 for the second.

Going from `CCC(=O)OCC(=O)C1(OC(=O)CC)C(C)CC2C3CCC4=CC(=O)C=CC4(C)C3(Cl)C(O)CC21C` (centres undefined) to `C[C@@H]1CC2C3C[C@H](F)C4=CC(=O)C=C[C@]4(C)[C@@]3(F)[C@@H](O)C[C@]2(C)[C@@]1(O)C(=O)CO` (some centres undefined), the relative growth falls from 1.13 to 1.01.

Going from `NC(=O)c1c(N)c(C(N)=S)n2c1CCC2` to `C[C@H]1CCc2c(C(=O)O)csc2C1`, the relative growth falls from 1.05 to 0.851.

Compared with `C[C@@H]1CN([C@@H](C)CO)C(=O)c2cc(C#CC3(O)CCCC3)cnc2O[C@H]1CN(C)S(=O)(=O)c1ccc(F)cc1`, `C[C@@H]1CN([C@H](C)CO)S(=O)(=O)c2ccc(C3=CCCC3)cc2O[C@@H]1CN(C)S(=O)(=O)c1ccc(F)cc1` is higher in relative growth: 0.857 for the first, 1 for the second.

Going from `CNC(=O)C[C@H]1CC[C@H]2[C@@H](COC[C@H](O)CN2C(=O)c2ccc3c(c2)OCO3)O1` to `O=C(C[C@H]1CC[C@@H]2[C@H](COC[C@@H](O)CN2S(=O)(=O)c2cccc(Cl)c2)O1)N1CCOCC1`, the relative growth falls from 1.09 to 1.04.

First: COc1ccc(S(=O)(=O)N2C[C@@H](O)COC[C@@H]3O[C@H](CC(=O)NCCN4CCCCC4)CC[C@H]32)cc1
Second: O=C(C[C@H]1CC[C@H]2[C@@H](COC[C@@H](O)CN2S(=O)(=O)c2cccc(F)c2)O1)NCCCN1CCOCC1
The relative growth of the first is lower: 0.858 for the first, 1.02 for the second.

First: COc1cccc(NC(=O)N[C@@H]2CC[C@H](CC(=O)N3CCN(C)CC3)O[C@H]2CO)c1
Second: COc1ccc(S(=O)(=O)N[C@H]2CC[C@@H](CC(=O)N3CCC(Cc4ccccc4)CC3)O[C@H]2CO)cc1
The relative growth of the first is higher: 1 for the first, 0.846 for the second.

First: C=CCOC(=O)[C@H]1[C@@H]2C(=O)O[C@@H](c3ccccc3)[C@@H](c3ccccc3)N2[C@@H](c2ccc(OCCOC(=O)[C@@H]3C[C@@H]4C(=O)N[C@@H](CCCC[N+](C)(C)C)C(=O)N4[C@@H]3c3ccc(O)cc3)cc2)[C@]12C(=O)Nc1ccc(I)cc12
Second: COCCOC(=O)N1C(=O)[C@@]2(c3cc(C#CCC(C(=O)OC)C(=O)OC)ccc31)[C@H](c1ccccc1OCCO)N1[C@H](c3ccccc3)[C@H](c3ccccc3)OC(=O)[C@H]1[C@@H]2C(=O)Nc1nc2ccccc2s1
The relative growth of the first is higher: 1.48 for the first, 0.985 for the second.

First: Cl.N=C(N)n1cccn1
Second: CCc1c(O)nc2ccccn2c1=O
The relative growth of the first is lower: 0.127 for the first, 0.897 for the second.

Compared with `CN(CC(=O)Nc1ccc(F)cc1F)S(=O)(=O)c1ccc2c(c1)c(=O)n(C)c(=O)n2C`, `C[C@@H]1CN([C@H](C)CO)S(=O)(=O)c2ccc(C#Cc3ccncc3)cc2O[C@@H]1CN(C)S(=O)(=O)c1ccc(F)cc1` is lower in relative growth: 0.928 for the first, 0.911 for the second.

Compared with `COc1ccc([C@H]([C@H](Cc2ccccc2)OC(C)=O)N(C[C@@H](/C=C/c2ccccc2)CC(=O)N(C)C)[C@@H](Cc2ccccc2)C(OC)OC)cc1`, `COc1ccc(-c2cn(CCNC(=O)[C@H](Cc3ccccc3)NS(=O)(=O)c3ccc(C)cc3)nn2)cc1OC` is lower in relative growth: 1.27 for the first, 1.01 for the second.

Compared with `CC[C@@H](O)CNNC(=O)OC(C)(C)C`, `CC(=O)OC(CC(=O)O)[N+](C)(C)C.[Cl-]` (centres undefined) is lower in relative growth: 1.22 for the first, 1.12 for the second.

Going from `OCC1(CO)COC(COc2ccccc2)=N1` to `NCCOc1ccccc1Cc1ccccc1`, the relative growth falls from 0.926 to 0.745.

Going from `N[C@@H](CO)C(=O)O` to `CN([NH2+][O-])C(=O)N[C@@H]1[C@@H](O)[C@H](O)[C@@H](CO)O[C@@H]1O`, the relative growth falls from 1.05 to 1.01.

Compared with `Nc1ncnc2[nH]cnc12`, `Cl.Clc1ccc2nsnc2c1NC1=NCCN1` is higher in relative growth: 0.932 for the first, 1.29 for the second.

Compared with `NNC(=O)[C@H]1CCCNC1=O`, `O=C(O)c1cn(C2CC2)c2cc(N3CCNCC3)c(F)cc2c1=O` is lower in relative growth: 0.813 for the first, 0.17 for the second.

First: C[C@H]1CN([C@@H](C)CO)S(=O)(=O)c2ccc(-c3ccncc3)cc2O[C@@H]1CN(C)C(=O)c1cccc(F)c1
Second: C[C@@H]1CN([C@@H](C)CO)S(=O)(=O)c2ccc(C3=CCCCC3)cc2O[C@@H]1CN(C)C(=O)C1CCOCC1
The relative growth of the first is lower: 0.911 for the first, 1.24 for the second.

Compared with `O=C(N[C@H]1C=C[C@@H](CC(=O)N2CCOCC2)O[C@@H]1CO)c1ccccn1`, `O=C(CN1CCOCC1)N[C@H]1CC[C@@H](CCNS(=O)(=O)c2ccccc2F)O[C@H]1CO` is higher in relative growth: 0.813 for the first, 1.1 for the second.

Going from `Cc1nn(CC(=O)O)c(=O)c2cccn12` to `Cc1cc(C)n(CCC(=O)O)n1`, the relative growth falls from 1.11 to 0.912.

Compared with `CCN(CC)S(=O)(=O)c1nnc[nH]1`, `CN(C)CCCN1C(=O)[C@@H]2[C@@H](C1=O)[C@@H]1C=C[C@@H]2C1` is lower in relative growth: 0.954 for the first, 0.915 for the second.

Compared with `COc1cc(N2CCC(N(C)C)CC2)ccc1Nc1ncc(Cl)c(Nc2ccccc2P(C)(C)=O)n1`, `COc1ccc(S(=O)(=O)N(C)C[C@H]2Oc3cc(C#CC4CCCC4)ccc3S(=O)(=O)N([C@@H](C)CO)C[C@H]2C)cc1` is higher in relative growth: 0.999 for the first, 1.26 for the second.

Going from `CC1=CC(=O)C(C(C)C)=CC1=O` to `Cc1cc(C(C)(C)C)c(O)c(C(C)(C)C)c1`, the relative growth rises from 0.898 to 0.987.

Compared with `COC(=O)Nc1nc2ccc(Sc3ccccc3)cc2[nH]1`, `COc1ccc(-c2nc(-c3ccc(C)cc3C)cs2)cc1` is lower in relative growth: 1.38 for the first, 0.985 for the second.

First: Cn1c(=O)c2c(nc(N3CCCCC3)n2CCN)n(C)c1=O
Second: CO[C@H]1CN(C)C(=O)c2ccc(NS(=O)(=O)c3cn(C)cn3)cc2OC[C@H](C)N(CCC(F)(F)F)C[C@H]1C
The relative growth of the first is lower: 0.917 for the first, 1.16 for the second.

Going from `Cl.Cl.OCCN1CCN(CCCN2c3ccccc3Sc3ccc(C(F)(F)F)cc32)CC1` to `COc1oc(C(=O)NC2CCCCC2)c(-c2ccc(Cl)cc2)c1S(=O)(=O)c1ccc(C(F)(F)F)cc1[N+](=O)[O-]`, the relative growth rises from 0.489 to 0.992.

Compared with `COc1ccc(/C=C/C(=O)c2ccc(O)cc2O)cc1`, `COc1ccc2c(c1)OCC(Cc1ccc(OC)c(O)c1)C2=O` (centres undefined) is higher in relative growth: 1.04 for the first, 1.16 for the second.

First: COc1ccc([Si](C)(C)[C@H]2[C@H](CCO)O[C@@]3(C(=O)N(Cc4cccc(N5C(=O)c6cccc7cccc5c67)c4)c4ccccc43)[C@@H]2C)cc1
Second: O=C(C1=C[C@H](c2coc3ccccc3c2=O)C[C@H](OCCCCO)O1)N1CCOCCOCCOCCOCC1
The relative growth of the first is higher: 1.4 for the first, 1.18 for the second.

With `Cc1cc(=O)oc2cc(O[C@H]3O[C@@H](CO)[C@@H](O)[C@@H](O)[C@@H]3O)ccc12` the relative growth was 1.02.
